Patent US20220024882A1, “NOVEL TUMOR ANTIGEN BINDING AGENTS AND USES THEREOF” (ITM Isotopen Technologien München AG, priority 2018, published 2022)

Sequences of proteins named here, by UniProt entry; tags and fusion partners are left off.
UniProt Q04609, whole entry: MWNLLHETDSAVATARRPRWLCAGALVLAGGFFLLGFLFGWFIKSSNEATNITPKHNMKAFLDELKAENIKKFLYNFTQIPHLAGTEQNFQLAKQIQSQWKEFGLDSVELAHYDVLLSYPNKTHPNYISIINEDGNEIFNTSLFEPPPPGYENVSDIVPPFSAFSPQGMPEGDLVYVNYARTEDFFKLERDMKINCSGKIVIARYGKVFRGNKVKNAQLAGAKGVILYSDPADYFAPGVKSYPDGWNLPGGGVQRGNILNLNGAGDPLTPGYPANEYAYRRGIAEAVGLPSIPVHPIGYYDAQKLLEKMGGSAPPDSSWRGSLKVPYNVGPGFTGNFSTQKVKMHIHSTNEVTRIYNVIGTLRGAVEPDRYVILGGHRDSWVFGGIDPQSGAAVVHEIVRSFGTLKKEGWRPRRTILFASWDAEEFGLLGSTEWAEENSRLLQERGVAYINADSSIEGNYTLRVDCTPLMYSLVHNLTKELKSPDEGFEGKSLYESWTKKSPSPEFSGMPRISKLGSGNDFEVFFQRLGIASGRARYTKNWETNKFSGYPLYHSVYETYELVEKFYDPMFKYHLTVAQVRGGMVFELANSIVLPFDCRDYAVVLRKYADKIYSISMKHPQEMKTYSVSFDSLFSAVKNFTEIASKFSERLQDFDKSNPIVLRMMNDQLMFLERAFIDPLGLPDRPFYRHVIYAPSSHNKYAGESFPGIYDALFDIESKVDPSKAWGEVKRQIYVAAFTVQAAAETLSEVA

Assays:
[1] = system: PSMA-positive PC-3 PIP tumor-bearing mice; conditions: earlier therapy study, tested as the radiolabelled form, cited from earlier work
[2] = previously obtained (Umbricht et al.), tested as the radiolabelled form; cited from earlier work
[3] = target: PSMA (Homo sapiens, UniProt Q04609); test: Determination of KD values (PSMA-binding affinity); conditions: PSMA-binding affinity of the 177Lu radioligand; tested as the radiolabelled form

## Cc1ccc(CCCC(=O)NCCCC[C@H](NC(=O)CN2CCN(CC(=O)O)CCN(CC(=O)O)CCN(CC(=O)O)CC2)C(=O)NCC2CCC(C(=O)N[C@@H](Cc3ccc4ccccc4c3)C(=O)NCCCC[C@H](NC(=O)N[C@@H](CCC(=O)O)C(=O)O)C(=O)O)CC2)cc1 (stereo partly drawn)
[1]; 2 MBq per mouse
  TGDI5 (tumor growth delay index, 5-fold increase of tumor size): 1.8 and 1.8 ± 0.5
[1]; 5 MBq per mouse, n=6
  mice of the group in which the tumors disappeared entirely: four
  mice still alive at the end of the study at Day 84: four
[1]; 5 MBq per mouse
  TGDI5 (tumor growth delay index, 5-fold increase of tumor size): not defined
  average relative body weight at the time of euthanasia: 1.20±0.14
  day on which the two mice with tumor regrowth reached the endpoint: 58 days and 68 days
  median survival: undefined
[2]
  n-octanol/PBS distribution coefficient (log D value): -2.9
[3]
  Kd: 30 nM

Values joined by “and” are separate entries in the source; they are usually repeats but may differ in a detail not shown here. Equal entries are not always repeated. Where two headings read alike, the source gives them in different places.
